Values of other authors as cited in paper PMC8396023, “Peptide Stapling Improves the Sustainability of a Peptide-Based Chimeric Molecule That Induces Targeted Protein Degradation” (International Journal of Molecular Sciences, 2021).

Details: reductive environment in the cell

**Q.** With “peptidomimetic estrogen receptor modulators 3 [PERM3]” as the substance, how does the “stability in cell (disulfide bond)” value read?
**A.** cleaved by the reductive environment in the cell and therefore loses its activity
